Experimental data from article PMC11117691, “Flipping the GPCR Switch: Structure-Based Development of Selective Cannabinoid Receptor 2 Inverse Agonists” (ACS Central Science, 2024).
Where “and” joins values, the source holds several entries; their conditions need not be identical. Identical values can stand only once.

Sequences of proteins named here, by UniProt entry; tags and fusion partners are left off.
UniProt P34972, whole entry: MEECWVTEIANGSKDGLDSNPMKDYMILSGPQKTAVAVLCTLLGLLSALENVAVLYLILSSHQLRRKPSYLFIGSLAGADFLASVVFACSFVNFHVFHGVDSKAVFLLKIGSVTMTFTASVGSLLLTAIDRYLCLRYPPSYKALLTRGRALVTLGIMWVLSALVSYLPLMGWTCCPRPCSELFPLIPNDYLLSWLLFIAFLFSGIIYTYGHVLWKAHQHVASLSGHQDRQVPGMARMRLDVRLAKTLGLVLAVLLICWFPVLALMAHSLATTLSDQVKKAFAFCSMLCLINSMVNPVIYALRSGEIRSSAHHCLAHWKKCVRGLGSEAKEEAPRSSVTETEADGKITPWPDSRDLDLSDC
UniProt P21554, whole entry: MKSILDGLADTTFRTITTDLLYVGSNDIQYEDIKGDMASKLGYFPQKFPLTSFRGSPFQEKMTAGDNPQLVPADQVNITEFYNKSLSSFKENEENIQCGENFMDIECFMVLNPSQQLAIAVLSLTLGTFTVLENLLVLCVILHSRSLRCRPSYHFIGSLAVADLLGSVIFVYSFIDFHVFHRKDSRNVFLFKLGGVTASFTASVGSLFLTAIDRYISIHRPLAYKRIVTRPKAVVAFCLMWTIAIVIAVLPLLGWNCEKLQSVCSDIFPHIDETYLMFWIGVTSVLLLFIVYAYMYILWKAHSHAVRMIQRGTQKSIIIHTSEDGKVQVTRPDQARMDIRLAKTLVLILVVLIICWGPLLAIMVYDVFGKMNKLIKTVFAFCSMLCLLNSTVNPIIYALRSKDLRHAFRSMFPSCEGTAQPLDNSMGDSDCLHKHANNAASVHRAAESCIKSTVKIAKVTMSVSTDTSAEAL

Key:
[1] = target: T1, hCB2R (Homo sapiens, UniProt P34972); assay: cAMP HTRF assay in hCB2R-CHO cells; details: for pEC50 (cAMP): hCB2R-CHO cells, forskolin stimulated, mean N = 3
[2] = target: hCB1R (Homo sapiens, UniProt P21554); assay: TR-FRET saturation binding assay at CB1R; details: selectivity for CB2R over CB1R, 37 °C
Experimental: The binding selectivity of fluorescent probes was tested against the closely related CB1R in a saturation binding assay at 37 °C using membrane preparations derived from HEK293 cells expressing hCB1R (Table 1). […] Collectively, the excellent affinity and selectivity of a range of physicochemically distinct substituents and fluorophores highlight the versatility of novel platform ligand (R)-1.

[3] = target: T1, hCB2R; assay: TR-FRET kinetic binding assay at CB2R; details: 37 °C, hCB2R-HEK293 membranes, mean N = 3
[4] = tested on: CB2R-mediated phosphorylation of endogenous ERK1/2; assay: AlphaScreen SureFire phospho-ERK assay in CB2R inducible HCC1954 cells; details: 1 μM, 30 min, versus vehicle
[5] = target: T1, hCB2R; assay: Radioligand binding assay with [3H]-CP55,940; details: read-out: Ki CB2R; [3H]-CP55,940 competition, CHO-hCB2R membranes, 2 h at 30 °C
[6] = target: T1, hCB2R; assay: TR-FRET saturation binding assay at CB2R; details: read-out: Kd CB2R, 37 °C, hCB2R-HEK293 membranes, mean N = 3
[7] = normalized to agonist CP-55,940 response (100%) and basal level (0%)

C#CCCC(=O)NCC1=C[C@@H](c2c(OC)cc(C(C)(C)CCCCCCN=[N+]=[N-])cc2OC)[C@H]2C[C@@H]1C2(C)C
pEC50 (cAMP) [1]: 8.47
Emax (cAMP) [1, 7]: +112%

COc1cc(C(C)(C)[C@H](CCCCCN=[N+]=[N-])c2ccccc2)cc(OC)c1[C@@H]1C=C(CNC(=O)CCCCCNC(=O)c2ccc3c(c2)C2(OC3=O)c3ccc(O)cc3Oc3cc(O)ccc32)[C@@H]2C[C@H]1C2(C)C
Kd ratio (CB1R/CB2R) [2]: 42–142 and 42

COc1cc(C(C)(C)[C@H](CCCCCN=[N+]=[N-])c2ccccc2)cc(OC)c1[C@@H]1C=C(CNC(=O)CCCCCNC(=O)c2ccc3c(c2)C(=O)OC32c3ccc(N(C)C)cc3Oc3cc(N(C)C)ccc32)[C@@H]2C[C@H]1C2(C)C
koff [3]: 1.08 10^–2 min^–1
kon [3]: 3.60 10^6 M^–1 min^–1
τ (receptor residence time) [3]: 92.6 min
Kd ([3]; read-out: kinetic Kd): 3 nM

CCN(CC)c1ccc2cc(/C=C/c3ccc(S(=O)(=O)[O-])c[n+]3CCCCCC(=O)NCC3=C[C@@H](c4c(OC)cc(C(C)(C)[C@@H](CCCCCN=[N+]=[N-])c5ccccc5)cc4OC)[C@H]4C[C@@H]3C4(C)C)c(=O)oc2c1
pEC50 (cAMP) [1]: 6.47
Emax (cAMP) [1, 7]: –37%

CCN(CC)c1ccc2cc(/C=C/c3ccc(S(=O)(=O)[O-])c[n+]3CCCCCC(=O)NCC3=C[C@@H](c4c(OC)cc(C(C)(C)[C@H](CCCCCN=[N+]=[N-])c5ccccc5)cc4OC)[C@H]4C[C@@H]3C4(C)C)c(=O)oc2c1
ERK1/2 phosphorylation level ([4]; CB2R expression induced with DOX (1 μg/mL)): no effect
ERK1/2 phosphorylation level ([4]; absence of CB2R expression inducer (DOX)): remained the same
pEC50 (cAMP) [1]: 7.15
Emax (cAMP) [1, 7]: –31%
Ki [5]: 8.26 nM
Kd [6]: 18.9 nM

COc1cc(C(C)(C)[C@H](CCCCCN=[N+]=[N-])c2ccccc2)cc(OC)c1[C@@H]1C=C(CNC(=O)CCCCCCNc2ccc([N+](=O)[O-])c3nonc23)[C@@H]2C[C@H]1C2(C)C
pEC50 (cAMP) [1]: 5.91
Emax (cAMP) [1, 7]: –40%

COc1cc(C(C)(C)[C@@H](CCCCCN=[N+]=[N-])c2ccccc2)cc(OC)c1[C@@H]1C=C(CNC(=O)CCCCCCNc2ccc([N+](=O)[O-])c3nonc23)[C@@H]2C[C@H]1C2(C)C
pEC50 (cAMP) [1]: 4.98
Emax (cAMP) ([1]; normalized to inverse agonist AM10257 response (0%) and basal level (100%)): +44%
